Paper PMC9535023, “Inhibition of phospholipase D1 induces immunogenic cell death and potentiates cancer immunotherapy in colorectal cancer” (Experimental & Molecular Medicine, 2022)

Test system: DLD1 cells
Assay: Cell viability (MTT)
Type: cell-based
Details: dose- and time-dependent
Protocol: Cell viability was measured by MTT (3-(4,5-dimethylthiazol2-yl)-2,5-diphenyltetrazolium bromide, Sigma-Aldrich). Cells (5 × 10^3 cells/well) were seeded in a 96-well plate. […] After treatment, the cells were incubated with 0.5 mg/mL MTT in the media for 2 h and lysed with DMSO. Absorbance was measured at 570 nm using a VersaMax ELISA microplate reader (Molecular Devices).

## C[C@@H](CN1CCC(n2c(=O)[nH]c3cc(Cl)ccc32)CC1)NC(=O)c1ccc2ccccc2c1 [VU0155069, reference compound]
  viability of DLD1 cells, in words: significantly inhibited the viability
